The entries are a selection whose mix differs from that of the whole data set. The source made the active and inactive calls.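 Rule for the calls: active = inhibition above that plate's mean sample inhibition plus 3 SD (cut at about 26% in these data); inactive = the rest.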
test: nonselective Gq signaling inhibition in CHO cells – cell-based, fluorescence, Fluo-8 calcium dye, counter-screen for OX1R antagonist project, primary screen (AID 463079); settings: parental CHO-K1, ATP-induced calcium, Fluo-8 fluorescence; at 5.6 µM; hits give high values;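 note: 0% = ATP-challenged DMSO wells and 100% = DMSO wells without ATP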
In short: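 test system = CHO parental line | reagent = ATP stimulus | measured by = intracellular calcium via Fluo-8 no-wash fluorescent dye | control set = ATP and no-ATP DMSO wells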

| SMILES | inhibition |
| --- | --- |
| CC(=O)Nc1ccc([As](=O)(O)O)c(O)c1 | inactive: -4.46% |
| CC(=O)Nc1ccc(Oc2c([N+](=O)[O-])cc([N+](=O)[O-])cc2[N+](=O)[O-])cc1 | inactive: 13.9% |
| Cc1ccccc1CN(C)C(=O)COC(=O)C(O)(c1ccccc1)c1ccccc1 | inactive: -20.5% |
| C[C@H]1OP(=O)(Oc2ccccc2)C[C@@H]2O[C@@H]21 (stereo not given in full) | inactive: -0.64% |
| C[C@@H]1C=CCP(=O)(Oc2ccccc2)O1 (stereo not given in full) | inactive: -1.47% |
| CC(=O)c1ccc(N2CC2c2ccncc2)cc1 (stereo not given) | inactive: -5.45% |
| CC(C)(C)C(=O)NC(Sc1ccccc1)C(Cl)(Cl)Cl (stereo not given) | inactive: -16.9% |
| O=P1(Nc2nc3ccc(Cl)cc3s2)COc2ccccc2O1 (stereo not given) | inactive: -9.51% |
| CCOc1ccc(C2=NCC(CBr)S2)cc1 (stereo not given) | inactive: -19.1% |
| CC(NC(=O)COC(=O)C(O)(c1ccccc1)c1ccccc1)c1ccccc1 (stereo not given) | inactive: -10.6% |
| Cc1ccccc1OP(=O)(Nc1ccccn1)Oc1ccccc1C | inactive: -13.8% |
| CN(C)C(=O)Oc1noc2ccccc12 | inactive: 4.39% |
| O=C(OC1CN2CCC1CC2)c1ccccc1 (stereo not given) | inactive: 2.78% |
| CCC(=O)N1C2C3N(C(=O)CC)C1C1N(C(=O)CC)C(C(N1C(=O)CC)N3C(=O)CC)N2C(=O)CC | inactive: -3.61% |
| COC(=O)c1cc2c(s1)N=C(c1ccccc1)N(C)P2(=O)N1CCOCC1 (stereo not given) | inactive: -18.4% |
| Cc1ccc(OP(=O)(Nc2ccccn2)Oc2ccc(C)cc2)cc1 | inactive: -7.18% |
| CC(=O)NC(SC(=S)N(CC(C)C)CC(C)C)C(Cl)(Cl)Cl (stereo not given) | inactive: -0.78% |
| c1ccc(-c2nn[nH]n2)c(-c2nn[nH]n2)c1 | inactive: -17.7% |
| CCOC(=O)NC(Sc1ccccc1)C(Cl)(Cl)Cl (stereo not given) | inactive: -7.51% |
| Cc1ccc(NP(=O)(Oc2cccc(C)c2)Oc2cccc(C)c2)nc1 | inactive: -12.9% |
| O=C(NC1CCS(=O)(=O)C1)NP(=S)(Oc1ccccc1)Oc1ccccc1 (stereo not given) | inactive: -3.9% |
| CCNC(=S)/N=C(\N)N[N+](=O)[O-] | inactive: -9.77% |
| O=C(OC1CN2CCC1CC2)c1cccc(Cl)c1 (stereo not given) | inactive: -5.64% |
| C(Cc1nn[nH]n1)Cc1nn[nH]n1 | inactive: -3.41% |
| Nc1ccc([As](=O)(O)c2ccc([N+](=O)[O-])cc2)cc1 | inactive: -2.21% |

| SMILES | inhibition |
| --- | --- |
| O=[As](O)(c1ccccc1)c1ccc(O)cc1 | inactive: -3.21% |
| O=[N+]([O-])c1ncn(CCn2cnc([N+](=O)[O-])n2)n1 | inactive: 0.93% |
| CC(=O)NC(SC(=S)N(C)C)C(Cl)(Cl)Cl (stereo not given) | inactive: -4.03% |
| O=[N+]([O-])c1ccc(O)c(/C=N/Nc2ccc([N+](=O)[O-])cc2[N+](=O)[O-])c1 | inactive: -0.21% |
| O=P(Nc1nc2ccccc2s1)(c1ccccc1)c1ccccc1 | inactive: -9.65% |
| C[C@H]1OP(=O)(Oc2ccccc2)[C@H](O)[C@H](O)[C@H]1N=[N+]=[N-] (stereo not given in full) | inactive: -1.35% |
| CN(C)C1(CNC(=O)c2ccc(Cl)c(S(N)(=O)=O)c2)CCCCC1 | inactive: -6.93% |
| O=P(Nc1ccccn1)(c1ccc(Br)cc1)c1ccc(Br)cc1 | inactive: -8.78% |
| c1nnnn1CCn1cnnn1 | inactive: 1.41% |
| O=P(Nc1nccs1)(c1ccccc1)c1ccccc1 | inactive: -14.6% |
| CC(C)C(=O)NC(Sc1ccccc1)C(Cl)(Cl)Cl (stereo not given) | inactive: -7.19% |
| CC1CCN(C(=O)Oc2c(Cl)cc(Cl)c3cccnc23)CC1 | inactive: -23.2% |
| CC(C)=N/N=C(\N)N[N+](=O)[O-] | inactive: 1.76% |
| CN(C)C(=O)OCCc1n(C)cc[n+]1C | inactive: -7.57% |
| CCN(/C(=N/P(=O)(N1CCOCC1)N1CCOCC1)N1CCOCC1)c1ccc(OC)cc1 | inactive: -7.33% |
| Nc1ccc([As](=O)(O)c2ccc(N)cc2)cc1 | inactive: -0.7% |
| C[N+]1=C2C=CC=CC=C2SC12C([N+](=O)[O-])=CC([N+](=O)[O-])=C[C-]2[N+](=O)[O-] (stereo not given) | active: 43.3% |
| Cc1ccc(NP(=O)(Oc2ccccc2)Oc2ccccc2)nc1 | inactive: -16.1% |
| O=[N+]([O-])c1cc([N+](=O)[O-])c(CCNc2ccccc2)c([N+](=O)[O-])c1 | inactive: 10.9% |
| CCc1nc2c(n1)c1c(non1O)c1c2no[n+]1[O-] | inactive: -15.4% |
| CC(=O)N1C2C3N(C(C)=O)C1C1N(C(C)=O)C(C(N1C(C)=O)N3C(C)=O)N2C(C)=O | inactive: -13% |
| O=[N+]([O-])c1cccc2n[nH]nc12 | inactive: 0.96% |
| COc1ccc(C2=NCC(CBr)S2)cc1 (stereo not given) | inactive: -13.3% |
| O=[N+]([O-])c1cccc(NC2=NCC(CBr)S2)c1 (stereo not given) | inactive: -20.6% |
| O=[N+]([O-])c1ncn(CCn2ncnc2[N+](=O)[O-])n1 | inactive: 9.99% |

| SMILES | inhibition |
| --- | --- |
| CC(C)(C)C(=O)NC(Sc1ccncn1)C(Cl)(Cl)Cl (stereo not given) | inactive: -2.58% |
| O=C(Nc1cc([As](=O)(O)O)ccc1O)c1ccccc1 | inactive: 5.91% |
| CCN(N=Nc1nonc1N)c1nonc1N | inactive: 1.43% |
| O=[N+]([O-])c1cc([N+](=O)[O-])c(CCN2CCOCC2)c([N+](=O)[O-])c1 | inactive: 4.05% |
| Cc1cc(SC(NC(=O)c2ccc(F)cc2)C(Cl)(Cl)Cl)ncn1 (stereo not given) | inactive: -6.05% |
| CCOP(=O)(Nc1ccccc1)OCC | inactive: -2.85% |
| CN(C(=O)Cc1ccc(Cl)c(Cl)c1)[C@H]1CCCC[C@@H]1N1CCCC1 | inactive: -15.2% |
| Cc1ccc(NP(=O)(Oc2ccccc2F)Oc2ccccc2F)nc1 | inactive: -11.2% |
| O=P(Nc1nc2ccc(Cl)cc2s1)(c1ccccc1)c1ccccc1 | inactive: 1.31% |
| CC(=O)Nc1ccc([As](=O)(O)O)cc1 | inactive: -5.85% |
| O=C(O)c1ccccc1[As](=O)(O)O | inactive: -13.1% |
| Oc1ccccc1CNc1ccccn1 | inactive: 1.5% |
| O=C(NC(Sc1ccncn1)C(Cl)(Cl)Cl)c1ccccc1 (stereo not given) | inactive: 4% |
| Cc1c2non([O-])c-2c(C)[n+](=O)[n+]1[O-] | inactive: -1.24% |
| Nc1cc(N)c2nonc2c1[N+](=O)[O-] | inactive: -7.94% |
| CC(C)CC(=O)NC(Sc1ccc(Cl)cc1)C(Cl)(Cl)Cl (stereo not given) | inactive: -15.5% |
| CN1CCCC(OC(=O)C(c2ccccc2)c2ccccc2)C1 (stereo not given) | inactive: -20.9% |
| Clc1ccc(Cl)c(NC2=NCC(CBr)S2)c1 (stereo not given) | inactive: -15.5% |
| COc1ccccc1OP(=O)(Nc1ccc(C)cn1)Oc1ccccc1OC | inactive: -8.36% |
| Cc1ccc(OP(=O)(Nc2nccs2)Oc2ccc(C)cc2)cc1 | inactive: -25.3% |
| CN(C(=O)Cc1ccc(Cl)c(Cl)c1)[C@H]1CCCC[C@H]1N1CCCC1 | inactive: -18.1% |
| Cc1ccc(N/C(=N/P(=O)(N2CCOCC2)N2CCOCC2)N2CCOCC2)cc1 | inactive: -4.99% |
| NC(=O)c1cc([N+](=O)[O-])cc([N+](=O)[O-])c1N | inactive: 4.43% |
| COc1ccc(N/C(=N/P(=O)(N2CCOCC2)N2CCOCC2)N2CCOCC2)cc1 | inactive: 2.44% |
| COc1ccc2nc(NP(=O)(c3ccccc3)c3ccccc3)sc2c1 | inactive: -11.5% |

| SMILES | inhibition |
| --- | --- |
| COc1cc(I)ccc1[As](=O)(O)O | inactive: -8.98% |
| Cc1c2c(nc3ccccc13)SC(C(Cl)Cl)C2 (stereo not given) | inactive: -18.3% |
| O=C(OC1CN2CCC1CC2)C12CC3CC(CC(C3)C1)C2 (stereo not given) | inactive: -11.1% |
| Cc1cc(=O)[nH]c(N[N+](=O)[O-])n1 | inactive: 4.24% |
| CC(C)NC(=O)NP(=O)(Oc1ccccc1)Oc1ccccc1 | inactive: -4.05% |
| CCN(CC)C(=S)SC(NC=O)C(Cl)(Cl)Cl (stereo not given) | inactive: -4.36% |
| O=[N+]([O-])c1cc([N+](=O)[O-])c(-c2ccn[nH]2)s1 | inactive: -2.69% |
| ClCCSc1nnc(-c2cccnc2)o1 | inactive: -2.75% |
| CC(C)c1ccc(OP(=O)(Nc2ccccn2)Oc2ccccc2F)cc1 (stereo not given) | inactive: -9.32% |
| Cc1ccc(OP(=O)(Nc2ccc([N+](=O)[O-])cn2)Oc2ccc(C)cc2)cc1 | inactive: -1.61% |
| Cc1ccc2nc3c(c(C)c2c1)CC(C(Cl)Cl)S3 (stereo not given) | inactive: -24.6% |
| C[As](=O)(O)c1cccc(C(=O)O)c1 | inactive: -6.86% |
| O=[As](O)(c1ccc(O)cc1)c1ccccc1O | inactive: -4.14% |
| COc1cc(C(=O)NCC2(N3CCOCC3)CCCCC2)ccc1OCC(C)C | inactive: -15% |
| Cc1cc(SC(NC=O)C(Cl)(Cl)Cl)ncn1 (stereo not given) | inactive: 1.48% |
| O=P(Nc1ccccn1)(c1cccc2ccccc12)c1cccc2ccccc12 | inactive: -33.3% |
| CCOC(=O)Nc1cccc([As](=O)(O)O)c1 | inactive: -0.99% |
| Cc1cc(SC(NC(=O)c2ccccc2)C(Cl)(Cl)Cl)nc(C(C)C)n1 (stereo not given) | inactive: -16.2% |
| CCOC(=O)Nc1ccc([As](=O)(O)O)c(O)c1 | inactive: 2.61% |
| CCC(C)N(CC(C)C)C(=S)SC(NC(C)=O)C(Cl)(Cl)Cl (stereo not given) | inactive: -0.03% |
| O=C(OC1CN2CCC1CC2)c1cccc([N+](=O)[O-])c1 (stereo not given) | inactive: -6.23% |
| CCOC(=O)c1ccc(NC(=O)C(C)(CCl)SC)cc1 (stereo not given) | inactive: -9.97% |
| O=C(COc1ccccc1)OC1CN2CCC1CC2 (stereo not given) | inactive: -4.75% |
| O=C(Nc1ccncc1[N+](=O)[O-])c1ccc([N+](=O)[O-])cc1[N+](=O)[O-] | inactive: -8.48% |
| COP1(=S)c2c(C)nn(CCC#N)c2N=C(c2ccc(F)cc2)N1C (stereo not given) | inactive: -13.8% |

Source: PubChem BioAssay AID463079 (The Scripps Research Institute Molecular Screening Center, 2010)
